One experiment concerns Melanotic melanoma B16. The experiment in a line: Antitumor activity against B16 melanoma in mice. The format is in vivo. The note with it: 0.13 mg/kg/day ip, BDF1 mice. The protocol: (§1) Lymphocytic leukemia P388 (CDF1 and BDF1 mice) and lymphoid leukemia L1210 (BDF1 mice) were inoculated by intraperitoneal injection of 0.8 ml diluted ascitic fluid containing 10^6 and 10^5 cells per mouse, respectively. Melanotic melanoma B16 (BDF1 mice) were implanted 0.5 ml of a 10% tumor brei intraperitoneally. Test materials were dissolved in 0.9% saline containing 10% dimethyl sulfoxide and graded doses of them were administered to mice intraperitoneally 24 hours after tumor implantation. Either olivomycin (NSC 38270) or mitomycin C was comparatively tested as a reference compound in the experiments.

Experiment [1] has as its system Lymphocytic leukemia P388. The experiment in a line: Antitumor activity against P388 leukemia in mice. The note with it: schedule 1 (once daily on days 1, 4 and 7). The format is in vivo, CDF1 and BDF1 mice. As to the method:
as §1
Values for percentage ratios of 125 and above indicate significant antitumor effect.

The record followed here is patent publication US4898940A (priority 1989, dated 1990).

Take `CCCCCCC/C=C/C=C/C(=O)N[C@H](C(=O)N[C@H]1C[C@@H](O)CCNC(=O)/C=C/[C@H](C)NC1=O)[C@@H](C)O` [BU-2867T A]: in the experiment on Melanotic melanoma B16, the “T/C % of MST” value is reported as 100%. As to Olivomycin A [reference compound], the “T/C % of MST” value stood at 135% in experiment [1] (1 mg/kg/day ip) and 140% in experiment [1] (3 mg/kg/day ip).
